AlphaSeq binding of Ab-95 light chain variants to a spike HR2 peptide

Source: Engelhart et al. 2022 (doi:10.1038/s41597-022-01779-4), MIT Lincoln Laboratory and A-Alpha Bio; data file from the FLAb repository.

Binding partner: SARS-CoV-2 spike HR2 peptide, sequence PDVDLGDISGINAS.

Parent: Ab-95, a human scFv built as VH, three GGGGS repeats, VL. Only the CDRs of the light chain vary.
VH: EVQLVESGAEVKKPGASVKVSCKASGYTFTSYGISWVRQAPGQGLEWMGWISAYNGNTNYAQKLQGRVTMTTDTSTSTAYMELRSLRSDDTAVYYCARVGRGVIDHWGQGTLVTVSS
VL: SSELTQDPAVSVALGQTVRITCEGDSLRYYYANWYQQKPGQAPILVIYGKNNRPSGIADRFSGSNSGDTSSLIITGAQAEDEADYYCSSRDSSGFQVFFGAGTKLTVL

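The starting antibody came from a phage panning campaign against this peptide. The library (AAYL52) carries one to three amino acid substitutions per variant, with no insertions or deletions. Affinity was read by AlphaSeq, a pooled yeast mating assay with surface-displayed partners. Binding brings cells together so that they mate, and sequencing counts the barcode pairs among the diploids. A regression on co-assayed BCL2-family reference pairs converts the normalised counts of each replicate to an apparent Kd. Mating was done three times.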

Variants are written as CDR1, CDR2 and CDR3 of the light chain (limits as in the source). Parent: EGDSLRYYYAN, GKNNRPS, SSRDSSGFQVF. Scale: log10 of Kd in nM, estimated from mating counts; low values are strong binders. A mean of the replicates is given; it leaves out those without a signal. A pair that was not seen in that replicate is written "n.d."; this usually means weak binding, but a binder can also be missed. Background: pairings of library AAYL52 with three empty control strains gave a value in 28% of cases (median 3.91, 5th percentile 2.90). Values in that range, when seen in few replicates, are hard to tell from nonspecific mating. For each scFv, signals with the empty controls are counted beside the result, with their mean in brackets.

| CDR-L1 | CDR-L2 | CDR-L3 | replicates, log10 nM | log10 Kd (nM), mean | control signals |
|---|---|---|---|---|---|
| EGDSLRYYYAN | GKHNRVS | SSRDSSGFQVF | 3.97 / 3.71 / 3.71 | 3.80 | 3/9 (4.64) |
| ESDSLRQYYAN | GKNNRPS | SSTDSSGFQVF | 3.94 / 3.28 / 2.97 | 3.40 | 1/9 (3.23) |
| ELRSLRYYYAS | GKNNRPS | SSRDSSGFQVF | n.d. / n.d. / n.d. | n.d. | 0/9 |
| EGDEHRYYYVN | GKNNRPS | SSRDSSGFQVF | 3.59 / 4.75 / 3.25 | 3.86 | 3/9 (4.20) |
| EGDSWRYYYHN | GKNTRPS | SSRDSSGFQVF | n.d. / n.d. / n.d. | n.d. | 3/9 (3.98) |
| EGDSLRYYYAN | GKNNRPS | NSRDSSSFMVF | 2.92 / 3.76 / n.d. | 3.34 | 2/9 (2.86) |
| EGDSLRHYRAN | GKNNRPS | SSRDQSGFQVF | 2.56 / 2.43 / 2.11 | 2.37 | 5/9 (3.68) |
| EGDSLRYYFAN | GKNNRPS | SSRDSAGTQVF | 2.75 / 2.65 / 2.58 | 2.66 | 1/9 (2.63) |
| EGDSLRYYYAN | GKNNRGS | SSRYSSGFQHF | 1.97 / 1.42 / 1.25 | 1.54 | 0/9 |
| KGDSLRYYYAN | GKNNRPS | SSRDSSDFQYF | 2.79 / 2.68 / 2.24 | 2.57 | 3/9 (4.17) |
| ELASLRYYYAN | GKNNRSS | SSRDSSGFQVF | 4.57 / 4.98 / n.d. | 4.77 | 2/9 (3.63) |
| EGDSPRYYYAN | GKNNRPS | SSRDSSGNQVF | 4.23 / 3.91 / 3.79 | 3.98 | 2/9 (4.12) |
| EGDSLRYYYAN | GKNNIPS | SSRDSSGFQVQ | n.d. / n.d. / n.d. | n.d. | 1/9 (4.59) |
| EGDSLQYYYAN | GKNNRPS | SSRDSRFFQVF | 4.11 / 3.16 / 4.59 | 3.95 | 7/9 (3.76) |
| EGDSLGYYYAN | GDNNRAS | SSRDSSGFQVF | 1.38 / 1.35 / 0.79 | 1.17 | 3/9 (3.61) |
| EGDSLRYSEAN | GKNNRPS | SSRISSGFQVF | 1.95 / 1.89 / 1.20 | 1.68 | 3/9 (3.49) |
| EGDSLYYYYAA | GKNNRPS | SSRDSSGLQVF | 4.62 / n.d. / n.d. | 4.62 | 3/9 (4.39) |
| EGDSLRYYYGH | GKNNRPS | SSRDSHGFQVF | 4.66 / 5.63 / 3.32 | 4.53 | 4/9 (3.59) |
| ETDTLRQYYAN | GKNNRPS | SSRDSSGFQVF | 3.49 / 4.73 / 4.59 | 4.27 | 6/9 (4.23) |
| EGDSLRYYYAN | GKINRPS | SVRDSSNFQVF | 3.91 / n.d. / n.d. | 3.91 | 0/9 |
| EEDSLRYYYAN | GKNNRPS | SERDSSGFQAF | 4.91 / n.d. / n.d. | 4.91 | 0/9 |
| EGDYLRYYYAN | GKGNPPS | SSRDSSGFQVF | 3.87 / n.d. / n.d. | 3.87 | 4/9 (3.74) |
| EGDSLIPYYHN | GKNNRPS | SSRDSSGFQVF | n.d. / 2.48 / 3.07 | 2.78 | 1/9 (4.32) |
| YGDSLRYYYAN | GKNNRHS | SSRDSRGFQVF | 4.10 / 3.21 / 3.59 | 3.64 | 3/9 (4.50) |
| EGDSLRYYYAN | GKNNRQS | SSVDSSGFQWF | 4.73 / n.d. / n.d. | 4.73 | 1/9 (4.33) |
| QGDSLRYYYAN | IKINRPS | SSRDSSGFQVF | n.d. / n.d. / n.d. | n.d. | 2/9 (4.11) |
| EGDSLIYYYAN | GKNNRTS | SSMDSSGFQVF | n.d. / n.d. / 4.37 | 4.37 | 3/9 (3.73) |
| EGDSLRYYYAN | YKNNRPV | SSRDSSGMQVF | 4.12 / n.d. / n.d. | 4.12 | 3/9 (4.36) |
| NGDSLRYYYEN | GKNNRPS | SSRVSSGFQVF | 4.63 / 3.94 / 4.17 | 4.25 | 9/9 (4.54) |
| EGDNLRYYPAN | GLNNRPS | SSRDSSGFQVF | 2.17 / 2.14 / 1.70 | 2.00 | 2/9 (3.06) |
| EGDGLRYYYQN | GKNNRLS | SSRDSSGFQVF | 3.84 / n.d. / n.d. | 3.84 | 3/9 (3.79) |
| EGDSLRYYYCN | GKDNSPS | SSRDSSGFQVF | 3.77 / n.d. / 3.41 | 3.59 | 3/9 (4.61) |
| EGDSLRYYYAN | GKNNRPS | WSRDSSTFKVF | n.d. / n.d. / 4.30 | 4.30 | 1/9 (3.83) |
| TGDSLRYYYAN | GDNNRPS | SSRDSSGFQVF | 2.13 / 1.87 / 1.68 | 1.89 | 2/9 (3.87) |
| EGDSLRYYYAN | GKNNRPS | LSNDSSGFQVC | 2.19 / 2.24 / 2.11 | 2.18 | 3/9 (3.75) |
| EGDSNRYYYAN | GKNNRPS | SSWDSSGFVVF | 3.09 / 3.72 / 2.49 | 3.10 | 1/9 (3.24) |
| EGDSLRYCYAN | GDNNRPS | SSRDSSGFQVF | 2.13 / 2.00 / 1.57 | 1.90 | 2/9 (3.79) |

Excerpt, the final 4 entries:

| CDR-L1 | CDR-L2 | CDR-L3 | replicates, log10 nM | log10 Kd (nM), mean | control signals |
|---|---|---|---|---|---|
| TGDSLRYYYAN | GDNNRPS | SSRDSSGFQVF | 2.13 / 1.87 / 1.68 | 1.89 | 2/9 (3.87) |
| EGDSLRYYYAN | GKNNRPS | LSNDSSGFQVC | 2.19 / 2.24 / 2.11 | 2.18 | 3/9 (3.75) |
| EGDSNRYYYAN | GKNNRPS | SSWDSSGFVVF | 3.09 / 3.72 / 2.49 | 3.10 | 1/9 (3.24) |
| EGDSLRYCYAN | GDNNRPS | SSRDSSGFQVF | 2.13 / 2.00 / 1.57 | 1.90 | 2/9 (3.79) |